Test system: spermatogonial cells isolated from CP-treated immature mice
Assay: In vitro culture in MCS of seminiferous tubule cells from CP-treated immature mice; marker-positive cells by immunofluorescence staining
Format: cell-based
[1] = after 4-5 weeks culture in MCS, FSH 7.5 IU/ml, IL-1α 20 pg/ml or TNF-α 20 pg/ml from the beginning, testosterone 10^−7 M at the last week

In the case of “FSH: follicle stimulating hormone (Serono), 7.5 IU/ml”, the “ACROSIN (meiotic/postmeiotic marker), percentage of stained cells” value [1] is reported as 43.92%, the “BOULE (meiotic marker), percentage of stained cells” value [1] is reported as 20.6% and the “C-KIT (pre-meiotic marker), percentage of stained cells” value [1] is reported as 22.42%. For the same substance, the “CD9 (pre-meiotic marker), percentage of stained cells” value [1] was 25.62%, the “CREM (meiotic marker), percentage of stained cells” value [1] was 35.16% and the “GFR-a (pre-meiotic marker), percentage of stained cells” value [1] was 18.97%. For the same substance, the “VASA (pre-meiotic marker), percentage of stained cells” value [1] was 24.04%, the “a-6-INTG (pre-meiotic marker), percentage of stained cells” value [1] was 18.8% and the “percentage of premeiotic, meiotic and meiotic/postmeiotic examined cells developed in MCS” value (compared to cells cultured in control medium) was “did not show any significant effect”.
